Assay [1] has as its target T1, GLS1 (Homo sapiens, UniProt O94925). Put plainly: GLS1 enzymatic assay (three-stage coupled endpoint assay: GLS1/GDH/diaphorase, resorufin fluorescence). As to conditions: read-out: Enzyme IC50.
Assay [2] addresses T1, GLS1. Put plainly: GLS1 cell assay: intracellular glutamate level in A549 cells (Glutamine/Glutamate-Glo). Particulars: read-out: Cell IC50, 2 h compound pre-incubation, then 24 h with L-Gln.

The chains behind the UniProt entries cited, without tags or fusion partners. Residues count along the entry.
UniProt O94925, 55-669 limits assumed: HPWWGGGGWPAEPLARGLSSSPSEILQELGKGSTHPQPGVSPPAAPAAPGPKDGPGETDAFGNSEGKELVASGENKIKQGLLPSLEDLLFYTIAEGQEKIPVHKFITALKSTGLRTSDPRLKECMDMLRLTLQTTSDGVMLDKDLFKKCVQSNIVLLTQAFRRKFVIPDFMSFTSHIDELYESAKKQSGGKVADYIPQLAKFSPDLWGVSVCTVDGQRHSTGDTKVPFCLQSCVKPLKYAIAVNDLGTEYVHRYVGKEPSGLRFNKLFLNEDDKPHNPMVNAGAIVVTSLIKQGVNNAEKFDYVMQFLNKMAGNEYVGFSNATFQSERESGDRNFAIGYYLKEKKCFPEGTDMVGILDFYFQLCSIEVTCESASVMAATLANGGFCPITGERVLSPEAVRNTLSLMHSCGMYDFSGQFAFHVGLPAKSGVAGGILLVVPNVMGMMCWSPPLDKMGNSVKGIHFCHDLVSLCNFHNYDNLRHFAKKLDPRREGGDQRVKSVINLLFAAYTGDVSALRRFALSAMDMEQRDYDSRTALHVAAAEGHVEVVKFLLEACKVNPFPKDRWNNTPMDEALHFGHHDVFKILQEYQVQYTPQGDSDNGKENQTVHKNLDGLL
UniProt O94925, 73-669 limits assumed: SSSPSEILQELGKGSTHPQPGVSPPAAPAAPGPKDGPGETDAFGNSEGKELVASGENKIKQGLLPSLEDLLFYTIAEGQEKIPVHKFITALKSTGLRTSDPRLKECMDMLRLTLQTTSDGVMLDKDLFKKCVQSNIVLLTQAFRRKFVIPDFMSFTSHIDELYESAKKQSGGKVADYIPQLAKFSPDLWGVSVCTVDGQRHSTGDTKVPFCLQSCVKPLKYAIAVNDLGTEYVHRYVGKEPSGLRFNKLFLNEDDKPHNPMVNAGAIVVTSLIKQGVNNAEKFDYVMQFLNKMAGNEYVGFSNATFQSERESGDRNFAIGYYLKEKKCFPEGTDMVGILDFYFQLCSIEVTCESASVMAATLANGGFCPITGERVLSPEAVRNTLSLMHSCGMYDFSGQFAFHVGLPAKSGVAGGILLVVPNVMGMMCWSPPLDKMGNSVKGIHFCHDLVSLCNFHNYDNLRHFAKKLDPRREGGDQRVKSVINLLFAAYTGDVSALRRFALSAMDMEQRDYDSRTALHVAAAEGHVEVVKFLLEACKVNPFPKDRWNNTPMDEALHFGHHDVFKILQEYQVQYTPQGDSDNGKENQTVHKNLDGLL

Broadly, the IC50 is the concentration that gives 50% inhibition. For `CC(C)Sc1ccccc1CN1CCC[C@@H](OCC(=O)Nc2nnc(N[C@@H]3CCN(c4cccnn4)C3)s2)C1` (single isomer, unassigned) [Example 107], the IC50 in assay [1] was determined as 66.2 nM; in assay [2], 4.1 nM.

Consider `CC1(C)CCC(CN2CC3(CO[C@@H](CC(=O)Nc4nnc(N[C@@H]5CCN(c6cccnn6)C5)s4)C3)C2)CC1` (single isomer, unassigned) [Example 97], for which the IC50 was 41.2 nM in assay [1] and 81 nM in assay [2].

Turning to `O=C(C[C@H]1CC2(CO1)CN(Cc1cccc(OC(F)(F)F)c1)C2)Nc1nnc(N[C@@H]2CCN(c3cccnn3)C2)s1` (single isomer, unassigned) [Example 80], the results for the IC50 in assay [1] and in assay [2] were 23 nM and 4.3 nM, respectively.

In the case of `O=C(C[C@H]1CN(C2CC3(CCCC3)C2)CCO1)Nc1nnc(N[C@@H]2CCN(c3cccnn3)C2)s1` (single isomer, unassigned) [Example 266], the half-inhibitory concentration (IC50) was determined as 20.4 nM in assay [1] and 7.2 nM in assay [2].

Regarding `O=C(Nc1nnc(N[C@@H]2CCN(c3cccnn3)C2)s1)[C@H]1CC2(CCN(Cc3ccccc3OC3CCC3)CC2)CO1` (single isomer, unassigned) [Example 213], the 50% inhibitory concentration (IC50) turned out to be 66.9 nM in assay [1] and 7.9 nM in assay [2].

Turning to `CC(C)Oc1cc(F)cc(CN2CCC[C@@H](CC(=O)Nc3nnc(N[C@@H]4CCN(c5cccnn5)C4)s3)C2)c1`, the values for the IC50 in assay [1] and in assay [2] were 24.9 nM and 4.1 nM, respectively.

On to `Cc1ccc(CN2CC[C@]3(C2)C[C@H](CC(=O)Nc2nnc(N[C@@H]4CCN(c5cccnn5)C4)s2)C3)c(OC(C)C)c1` (single isomer, unassigned) [Example 193], for which the figures for the IC50 in assay [1] and in assay [2] were 20.6 nM and 25.4 nM, respectively.

On to `Cc1cc(F)cc(CN2CC3(CCCN(CC(=O)Nc4nnc(N[C@@H]5CCN(c6cccnn6)C5)s4)C3)C2)c1`, for which the IC50 in assay [1] turned out to be 16.5 nM; in assay [2] it was 3.1 nM.

Turning to `Cc1cc(CN2CCC[C@@H](CC(=O)Nc3nnc(N[C@@H]4CCN(c5cccnn5)C4)s3)C2)cc(C)c1F`, the results for the half-inhibitory concentration (IC50) in assay [1] and in assay [2] were 27 nM and 7.8 nM, respectively.

For the molecule `Cc1ccccc1CN1CCC([C@H](C(=O)Nc2nnc(N[C@@H]3CCN(c4cccnn4)C3)s2)C2CCC2)CC1` (single isomer, unassigned) [Example 219], the results for the concentration for half-maximal inhibition (IC50) in assay [1] and in assay [2] were 72.3 nM and 24.3 nM, respectively.

As for `O=C(C[C@@H]1CCCN(Cc2ccccc2OC2CCCC2)C1)Nc1nnc(N[C@@H]2CCN(c3cccnn3)C2)s1`, the IC50 amounted to 52.2 nM in assay [1] and 34 nM in assay [2].

Consider `CC1(C)CCC(CN2CCO[C@H](CC(=O)Nc3nnc(N[C@@H]4CCN(c5cccnn5)C4)s3)C2)CC1` (single isomer, unassigned) [Example 72], for which the IC50 was determined as 37.2 nM in assay [1] and 3.4 nM in assay [2].

For `O=C(CC1CN(Cc2cccc(OC(F)(F)F)c2)C1)Nc1nnc(N[C@@H]2CCN(c3cccnn3)C2)s1`, the values for the IC50 in assay [1] and in assay [2] were 3520 nM and 2010 nM, respectively.

As to `CC(C)Sc1ccccc1CN1CCC(O)(CC(=O)Nc2nnc(N[C@@H]3CCN(c4cccnn4)C3)s2)CC1`, the IC50 amounted to 40.7 nM in assay [1] and 31.5 nM in assay [2].

With `O=C(CC1CN(C2CCC3(CC2)CC3)CCO1)Nc1nnc(N[C@@H]2CCN(c3cccnn3)C2)s1` (stereo partly shown), the IC50 in assay [1] worked out at 23 nM; in assay [2] it was 10 nM.

`O=C(C[C@H]1CN(C2CCC3(CC2)CC3)CCO1)Nc1nnc(N[C@@H]2CCN(c3cccnn3)C2)s1` (single isomer, unassigned) [Example 253]: the half-inhibitory concentration (IC50) in assay [1] was 25.9 nM; in assay [2], 21.3 nM.

For the molecule `CN(Cc1cccc(OC(F)(F)F)c1)C1(CC(=O)Nc2nnc(N[C@@H]3CCN(c4cccnn4)C3)s2)CC1`, the values for the half-inhibitory concentration (IC50) in assay [1] and in assay [2] were 107 nM and 3.7 nM, respectively.

`CC(C)(C)[C@H]1CC[C@H](N2CCOC(CC(=O)Nc3nnc(N[C@@H]4CCN(c5cccnn5)C4)s3)C2)CC1` (stereo partly shown): the figures for the IC50 in assay [1] and in assay [2] were 64.4 nM and 1.3 nM, respectively.

Consider `O=C(C[C@H]1CCN(Cc2cccc(OC(F)(F)F)c2)C1)Nc1nnc(N[C@@H]2CCN(c3cccnn3)C2)s1`, for which the values for the IC50 in assay [1] and in assay [2] were 30.9 nM and 5.4 nM, respectively.

As for `CC(C)Oc1ccccc1C(C)N1CCC(SCC(=O)Nc2nnc(N[C@@H]3CCN(c4cccnn4)C3)s2)CC1` (stereo partly shown), the IC50 is 27.4 nM in assay [1] and 2 nM in assay [2].

Consider `Cc1ccccc1CN1CCC(C(CC2CC2)C(=O)Nc2nnc(N[C@@H]3CCN(c4cccnn4)C3)s2)CC1` (stereo partly shown), for which the IC50 is 118 nM in assay [1] and 40.1 nM in assay [2].

In the case of `CC(C)C(C(C)C)N1CCOC(CC(=O)Nc2nnc(N[C@@H]3CCN(c4cccnn4)C3)s2)C1` (stereo partly shown), the IC50 in assay [1] came to 11.9 nM; in assay [2], 2.3 nM.

Turning to `CC(C)[C@@H]1CC[C@@H](C)C[C@@H]1N1CCO[C@H](CC(=O)Nc2nnc(N[C@@H]3CCN(c4cccnn4)C3)s2)C1` (racemic) [Example 127], the IC50 in assay [1] amounted to 5000 nM; in assay [2], 8590 nM.

As for `CC(C)Sc1ccccc1CN1CCCC(OCC(=O)Nc2nnc(N[C@@H]3CCN(c4cccnn4)C3)s2)C1` (stereo partly shown), the IC50 in assay [1] was 106 nM; in assay [2] it was 4.2 nM.

As to `Cc1c(F)cc(CN2CCC[C@@H](CC(=O)Nc3nnc(N[C@@H]4CCN(c5cccnn5)C4)s3)C2)cc1F`, the IC50 is 36.7 nM in assay [1] and 5.3 nM in assay [2].

`CCN1CCN(Cc2cccc(OC(F)(F)F)c2)C(CC(=O)Nc2nnc(N[C@@H]3CCN(c4cccnn4)C3)s2)C1` (stereo partly shown): the results for the IC50 in assay [1] and in assay [2] were 54.4 nM and 16.3 nM, respectively.

On to `COc1cc(CN2CCC[C@@H](CC(=O)Nc3nnc(N[C@@H]4CCN(c5cccnn5)C4)s3)C2)cc(C)c1F`, for which the half-maximal inhibitory concentration (IC50) in assay [1] worked out at 26.1 nM; in assay [2], 14.1 nM.

In the case of `CC1(C)CCC(CN2CCOC(CC(=O)Nc3nnc(N[C@@H]4CCN(c5cccnn5)C4)s3)C2)CC1` (stereo partly shown), the values for the IC50 in assay [1] and in assay [2] were 44.9 nM and 1.7 nM, respectively.

For the molecule `CC(C)Sc1ccccc1CN1CCC[C@@H](OCC(=O)Nc2nnc(N[C@@H]3CCN(c4cccnn4)C3)s2)C1` (single isomer, unassigned) [Example 106], the IC50 in assay [1] stood at 87.3 nM; in assay [2], 3.7 nM.

As for `Cc1cc(C)cc(CN2CC3(CCCN(CC(=O)Nc4nnc(N[C@@H]5CCN(c6cccnn6)C5)s4)C3)C2)c1`, the IC50 worked out at 30.2 nM in assay [1] and 6.6 nM in assay [2].

Consider `O=C(CC1CCC2(CC1)CCN(Cc1cncc(Cl)c1)CC2)Nc1nnc(N[C@@H]2CCN(c3cccnn3)C2)s1`, for which the IC50 in assay [1] amounted to 15.9 nM; in assay [2], 5.6 nM.

Consider `O=C(CC1CCC2(CC1)CCN(Cc1ccccc1)CC2)Nc1nnc(N[C@@H]2CCN(c3cccnn3)C2)s1`, for which the values for the IC50 in assay [1] and in assay [2] were 37.4 nM and 17.4 nM, respectively.

For the molecule `CC1(C)CCC(CN2CCCN(CC(=O)Nc3nnc(N[C@@H]4CCN(c5cccnn5)C4)s3)CC2)CC1`, the results for the IC50 in assay [1] and in assay [2] were 71.1 nM and 25 nM, respectively.

Regarding `CC1(C)CCC(CN2CCC(CC(=O)Nc3nnc(N[C@@H]4CCN(c5cccnn5)C4)s3)CC2)CC1`, the IC50 in assay [1] is 68.2 nM; in assay [2], 34.5 nM.

On to `O=C(CC1CCC2(CC1)CN(Cc1cccc(OC(F)F)c1)C2)Nc1nnc(N[C@@H]2CCN(c3cccnn3)C2)s1`, for which the figures for the IC50 in assay [1] and in assay [2] were 31.8 nM and 23.2 nM, respectively.

Turning to `C[C@@H]1CN(CC(=O)Nc2nnc(N[C@@H]3CCN(c4cccnn4)C3)s2)C[C@H](C)N1Cc1ccc(OC(F)(F)F)cc1`, the IC50 was determined as 121 nM in assay [1] and 2.8 nM in assay [2].

Take `CC(C)Oc1ccccc1SC1CCN(CCC(=O)Nc2nnc(N[C@@H]3CCN(c4cccnn4)C3)s2)CC1`: the figures for the IC50 in assay [1] and in assay [2] were 29.4 nM and 3.5 nM, respectively.

`CC1(C)CCC(CN2CC3(COC(CC(=O)Nc4nnc(N[C@@H]5CCN(c6cccnn6)C5)s4)C3)C2)CC1` (stereo partly shown): the IC50 in assay [1] came out at 40.6 nM; in assay [2], 58.2 nM.

`O=C(C[C@@H]1CCCN(Cc2cccc(OC(F)(F)F)c2)C1)Nc1nnc(N[C@@H]2CCN(c3cccnn3)C2)s1`: the IC50 in assay [1] is 57.6 nM; in assay [2], 2.8 nM.

Regarding `CN(CC(=O)Nc1nnc(N[C@@H]2CCN(c3cccnn3)C2)s1)C(C)(C)C1CCN(Cc2cccc(OC(F)(F)F)c2)CC1`, the values for the IC50 in assay [1] and in assay [2] were 90 nM and 25.9 nM, respectively.

With `O=C(CC1CCC2(CC1)CCN(Cc1ccc(C(F)(F)F)cn1)CC2)Nc1nnc(N[C@@H]2CCN(c3cccnn3)C2)s1`, the IC50 is 36.8 nM in assay [1] and 9.4 nM in assay [2].

On to `O=C(CC1CN(C23CCC(CC2)CC3)CCO1)Nc1nnc(N[C@@H]2CCN(c3cccnn3)C2)s1` (stereo partly shown), for which the IC50 in assay [1] was found to be 30.4 nM; in assay [2], 28.8 nM.

As to `CN1CCN(CC2CCC(C)(C)CC2)CC1CC(=O)Nc1nnc(N[C@@H]2CCN(c3cccnn3)C2)s1` (stereo partly shown), the 50% inhibitory concentration (IC50) in assay [1] was found to be 49.4 nM; in assay [2] it was 16.8 nM.

Take `O=C(CC1CCN(Cc2ccc(OC(F)F)cc2)CC1)Nc1nnc(N[C@@H]2CCN(c3cccnn3)C2)s1`: the IC50 in assay [1] was 39.5 nM; in assay [2] it was 27.2 nM.

For `O=C(CC1CCC2(CC1)CCN(Cc1cncc(Br)c1)CC2)Nc1nnc(N[C@@H]2CCN(c3cccnn3)C2)s1`, the IC50 in assay [1] was 16.7 nM; in assay [2], 5 nM.

Take `CCO[C@@H](C(=O)Nc1nnc(N[C@@H]2CCN(c3cccnn3)C2)s1)C1CCN(Cc2ccc(OC(F)F)cc2)CC1` (single isomer, unassigned) [Example 231]: the results for the 50% inhibitory concentration (IC50) in assay [1] and in assay [2] were 74 nM and 8.5 nM, respectively.

For the molecule `CC(C)OC(=O)c1cccc(CN2CCC(CC(=O)Nc3nnc(N[C@@H]4CCN(c5cccnn5)C4)s3)CC2)c1`, the IC50 in assay [1] came out at 28.2 nM; in assay [2], 7.2 nM.

For the molecule `C[C@@H](C(=O)Nc1nnc(N[C@@H]2CCN(c3cccnn3)C2)s1)C1CCN(Cc2ccc(OC(F)(F)F)cc2)CC1` (single isomer, unassigned) [Example 24], the IC50 stood at 119 nM in assay [1] and 30.6 nM in assay [2].

As for `CC(C)Oc1ccccc1CCN1CCC[C@H](CC(=O)Nc2nnc(N[C@@H]3CCN(c4cccnn4)C3)s2)C1`, the IC50 in assay [1] turned out to be 25.1 nM; in assay [2] it was 143 nM.

`CSc1ccccc1CN1CCC[C@@H](OCC(=O)Nc2nnc(N[C@@H]3CCN(c4cccnn4)C3)s2)C1` (single isomer, unassigned) [Example 103]: the concentration for half-maximal inhibition (IC50) is 67.4 nM in assay [1] and 7.9 nM in assay [2].
